Experiments:
ferroportin [1] = target: T1, ferroportin (Homo sapiens, UniProt Q9NP59); assay: FPN internalization assay (FPN activity assay), loss of ferroportin-GFP fluorescence; format: cell-based
T1 sequence (Q9NP59 1-571): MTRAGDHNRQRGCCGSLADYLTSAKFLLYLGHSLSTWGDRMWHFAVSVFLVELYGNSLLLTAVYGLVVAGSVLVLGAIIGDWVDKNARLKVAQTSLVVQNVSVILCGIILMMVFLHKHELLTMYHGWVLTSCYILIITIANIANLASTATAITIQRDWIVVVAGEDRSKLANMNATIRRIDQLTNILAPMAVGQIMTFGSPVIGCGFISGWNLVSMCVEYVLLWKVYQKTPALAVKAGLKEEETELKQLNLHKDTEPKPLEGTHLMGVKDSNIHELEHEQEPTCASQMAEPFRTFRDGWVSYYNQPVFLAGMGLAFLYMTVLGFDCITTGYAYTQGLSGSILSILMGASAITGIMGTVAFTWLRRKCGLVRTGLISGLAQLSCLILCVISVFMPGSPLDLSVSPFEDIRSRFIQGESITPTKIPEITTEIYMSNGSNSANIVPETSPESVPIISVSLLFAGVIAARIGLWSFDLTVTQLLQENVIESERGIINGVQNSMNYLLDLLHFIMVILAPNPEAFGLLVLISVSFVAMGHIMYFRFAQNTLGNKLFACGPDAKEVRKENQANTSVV

ferroportin [2] = target: T1, ferroportin; assay: T47D internalization assay in presence of mouse serum albumin; format: cell-based; parameters: a human breast carcinoma adherent cell line which endogenously expresses ferroportin; host or cells: T47D; conditions: T47D cells, 0.5% mouse serum albumin, 1 hr incubation
In short: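 Flow cytometry median fluorescence of live singlet cells gave IC50 via 4-parameter fit. Peptides in 0.5% MSA (30 min preincubation, 10 points from ~5 μM) were applied to T47D cells for 1 h, followed by a 2 h exposure to AF647 detection peptide at a fixed 200 nM.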

[3] = Table 1D, HEK293 cells stably expressing ferroportin-GFP, compound at least 18 hours, read-out: IC50: FPN
[4] = Table 1D, read-out: IC50: T47D MSA
[5] = Table 1C, HEK293 cells stably expressing ferroportin-GFP, compound at least 18 hours, read-out: IC50: FPN
[6] = Table 1C, read-out: IC50: T47D MSA

Compound	IC50 (ferroportin [1]; [3])	IC50 (ferroportin [2]; [4])	other results
CCCCCCCCCCCCCCCC(=O)NCC[N+](C)(C)CC(=O)NCCOCCOCC(=O)NCCOCCOCC(=O)NCCCC[C@H](NC(=O)[C@@H]1C[C@@H]2CN1C(=O)[C@H](C(c1ccccc1)c1ccccc1)NC(=O)[C@H](Cc1c[nH]cn1)NC(=O)[C@@H]1C[C@@H](CN1C(=O)[C@H](CCC(=O)O)NC(=O)CC(C)C)SS2)C(=O)NCCCCCc1ccccc1 [compound 124]	1 to 30 nM	0.1 to 10 nM	–
CCCCCCCCCCCCCCCC(=O)NCC[N+](C)(C)CC(=O)NCCCC[C@H](NC(=O)[C@@H]1CCCN1C(=O)[C@@H](NC(=O)[C@H](Cc1c[nH]cn1)NC(=O)[C@@H](NC(=O)[C@H](CCC(=O)O)NC(=O)CC(C)C)[C@@H](C)O)C(c1ccccc1)c1ccccc1)C(=O)NCC(c1ccccc1)c1ccccc1 [compound 24]	–	–	IC50 (ferroportin [1]; [5]): 1 to 30 nM; IC50 (ferroportin [2]; [6]): 10 to 100 nM
CC(=O)NCC[N+](C)(C)CC(=O)NCCCC[C@H](NC(=O)[C@@H]1CCCN1C(=O)[C@@H](NC(=O)[C@H](Cc1c[nH]cn1)NC(=O)[C@@H](NC(=O)[C@H](CCC(=O)O)NC(=O)CC(C)C)[C@@H](C)O)C(c1ccccc1)c1ccccc1)C(=O)NCCCCc1ccccc1 [compound 20]	–	–	IC50 (ferroportin [1]; [5]): 30 to 100 nM; IC50 (ferroportin [2]; [6]): 100 to 500 nM
CC(C)CC(=O)N[C@H]1CSSC[C@@H](C(=O)N[C@@H](CCCCNC(=O)CCOCCOCC[N+](C)(C)C)C(=O)NCCCCc2ccccc2)NC(=O)[C@H](C(c2ccccc2)c2ccccc2)NC(=O)[C@H](Cc2c[nH]cn2)NC(=O)[C@H]([C@@H](C)O)NC1=O [compound 160]	100 to 500 nM	> 500 nM	–
CC(C)CC(=O)N[C@@H](CCC(=O)O)C(=O)N[C@H](C(=O)N[C@@H](Cc1c[nH]cn1)C(=O)N[C@H](C(=O)N1CCC[C@H]1C(=O)N[C@H](C(=O)N(C)[C@@H](CCCCNC(=O)CCCc1ccc(I)cc1)C(=O)N[C@H](C(=O)N[C@H](CCCCN)C(N)=O)C(c1ccccc1)c1ccccc1)C1CCCCC1)C(c1ccccc1)c1ccccc1)[C@@H](C)O [compound 79]	1 to 30 nM	10 to 100 nM	–
CCCCCCCCCCCCCCCC(=O)NCCOCCOCCOCCOCCC(=O)NCCCC[C@H](NC(=O)[C@@H]1CCCN1C(=O)[C@@H](NC(=O)[C@H](Cc1c[nH]cn1)NC(=O)[C@@H](NC(=O)[C@H](CCC(=O)O)NC(=O)CC(C)C)[C@@H](C)O)C(c1ccccc1)c1ccccc1)C(=O)NCCCCCc1ccccc1 [compound 117]	1 to 30 nM	0.1 to 10 nM	–
CC(C)CC(=O)N[C@@H](CCC(=O)O)C(=O)N[C@H](C(=O)N[C@@H](Cc1c[nH]cn1)C(=O)N[C@H](C(=O)N1CCC[C@H]1C(=O)N[C@H](C(=O)N(C)[C@@H](CCCCNC(=O)CCCCCNC(=O)C[N+](C)(C)CCNC(=O)CCCCCCCCCCCCCCCCC(=O)O)C(=O)N[C@@H](Cc1ccc(-c2ccccc2)cc1)C(=O)N[C@H](CCCCN)C(N)=O)C1CCCCC1)C(c1ccccc1)c1ccccc1)[C@@H](C)O [compound 28]	–	–	IC50 (ferroportin [1]; [5]): 1 to 30 nM; IC50 (ferroportin [2]; [6]): 10 to 100 nM
CC(C)CC(=O)N1C[C@@H]2C[C@H]1C(=O)N[C@@H]([C@@H](C)O)C(=O)N[C@@H](Cc1c[nH]cn1)C(=O)N[C@@H](C(c1ccccc1)c1ccccc1)C(=O)N1C[C@@H](C[C@H]1C(=O)N[C@@H](CCCCNC(=O)CCOCCOCC[N+](C)(C)C)C(=O)NCCCCc1ccccc1)SS2 [compound 159]	> 500 nM	> 500 nM	–
CC(C)CC(=O)N[C@@H](CCC(=O)O)C(=O)N[C@H](C(=O)N[C@@H](Cc1c[nH]cn1)C(=O)N[C@H](C(=O)N1CCC[C@H]1C(=O)N[C@H](CCCCN)C(=O)N(Cc1ccccc1)C(CCCCCCC(=O)O)C(N)=O)C(c1ccccc1)c1ccccc1)[C@@H](C)O (some centres unmarked) [compound 149]	–	–	IC50 (ferroportin [1]): > 500 nM; IC50 (ferroportin [2]; IC50: T47D MSA (nM, Table 1D)): > 500 nM
CC(C)CC(=O)N[C@@H](CCC(=O)O)C(=O)N[C@H](C(=O)N[C@@H](Cc1c[nH]cn1)C(=O)N[C@H](C(=O)N1CCC[C@H]1C(=O)N[C@@H](CCCCNC(=O)CCCCCNC(=O)C[N+](C)(C)CCNC(=O)CCCCCCCCCCCCCCCCC(=O)O)C(=O)NCCCCCc1ccccc1)C(c1ccccc1)c1ccccc1)[C@@H](C)O [compound 87]	30 to 100 nM	100 to 500 nM	–
CC(C)CC(=O)N[C@@H](CCC(=O)O)C(=O)N[C@H](C(=O)N[C@@H](Cc1c[nH]cn1)C(=O)N[C@H](C(=O)N1CCC[C@H]1C(=O)N[C@H](CCCCN)C(=O)N(Cc1ccccc1)C(CC(C)C)C(=O)O)C(c1ccccc1)c1ccccc1)[C@@H](C)O (some centres unmarked) [compound 144]	> 500 nM	> 500 nM	–
CCCCCCCCCCCCCCCC(=O)NCC[N+](C)(C)CC(=O)NCCOCCOCC(=O)NCCOCCOCC(=O)NCCCC[C@H](NC(=O)[C@@H]1CCCN1C(=O)[C@@H](NC(=O)[C@H](Cc1c[nH]cn1)NC(=O)[C@@H](NC(=O)[C@H](CCC(=O)O)NC(=O)CC(C)C)[C@@H](C)O)C(c1ccccc1)c1ccccc1)C(=O)NCCCc1ccc(C(C)(C)C)cc1 [compound 103]	> 500 nM	0.1 to 10 nM	–
CC(C)CC(=O)N[C@@H](CCC(=O)O)C(=O)N[C@H](C(=O)N[C@@H](Cc1c[nH]cn1)C(=O)N[C@H](C(=O)N1CCC[C@H]1C(=O)N[C@@H](CCCCNC(=O)CCOCCOCC[N+](C)(C)C)C(=O)NCCCCc1ccccc1)C(c1ccccc1)c1ccccc1)[C@@H](C)O [compound 161]	30 to 100 nM	100 to 500 nM	–

Continued, in another order:

IC50 (ferroportin [1]; [3])	IC50 (ferroportin [2]; [4])	Compound	other results
100 to 500 nM	100 to 500 nM	CC(C)CC(=O)N[C@@H](CCC(=O)O)C(=O)N[C@H]1CSSC[C@@H](C(=O)N[C@@H](CCCC[N+](C)(C)C)C(=O)NCCCCc2ccccc2)NC(=O)[C@H](C(c2ccccc2)c2ccccc2)NC(=O)[C@H](Cc2c[nH]cn2)NC1=O [compound 193]	–
30 to 100 nM	10 to 100 nM	CCCCCCCCCCCCCCCC(=O)NCC[N+](C)(C)CC(=O)NCCOCCOCC(=O)NCCOCCOCC(=O)NCCCC[C@H](NC(=O)[C@@H]1CSSC[C@H](NC(=O)[C@H](CCC(=O)O)NC(=O)CC(C)C)C(=O)N[C@@H](Cc2c[nH]cn2)C(=O)N[C@@H](C(c2ccccc2)c2ccccc2)C(=O)N1C)C(=O)NCCCCc1ccccc1 [compound 210]	–
> 500 nM	> 500 nM	CC(C)CC(=O)N[C@@H](CCC(=O)O)C(=O)N[C@H]1CSSC[C@@H](C(=O)N[C@@H](CCCCNC(=O)COCCOCCNC(=O)COCCOCCNC(=O)[C@H](CN)NC(=O)CCCCCCCCCCCCCCCCC(=O)O)C(=O)NCCCCc2ccccc2)NC(=O)[C@H](C(c2ccccc2)c2ccccc2)NC(=O)[C@H](Cc2c[nH]cn2)NC1=O [compound 192]	–
1 to 30 nM	0.1 to 10 nM	CCCCCCCCCCCCCCCC(=O)NCCOCCOCCOCCOCCOCCOCCOCCOCCOCCOCCOCCOCCC(=O)NCCCC[C@H](NC(=O)[C@@H]1CCCN1C(=O)[C@@H](NC(=O)[C@H](Cc1c[nH]cn1)NC(=O)[C@@H](NC(=O)[C@H](CCC(=O)O)NC(=O)CC(C)C)[C@@H](C)O)C(c1ccccc1)c1ccccc1)C(=O)N[C@@H](Cc1ccccc1)C(=O)NCCCCC [compound 186]	–
30 to 100 nM	10 to 100 nM	CC(=O)NCC[N+](C)(C)CC(=O)NCCCCCC(=O)NCCCC[C@H](NC(=O)[C@@H]1CCCN1C(=O)[C@@H](NC(=O)[C@H](Cc1c[nH]cn1)NC(=O)[C@@H](NC(=O)[C@H](CCC(=O)O)NC(=O)CC(C)C)[C@@H](C)O)C(c1ccccc1)c1ccccc1)C(=O)NCCCCc1ccccc1 [compound 212]	–
100 to 500 nM	100 to 500 nM	CC(=O)NCC[N+](C)(C)CC(=O)NCCOCCOCC(=O)NCCOCCOCC(=O)NCCCC[C@H](NC(=O)[C@@H]1CCCN1C(=O)[C@@H](NC(=O)[C@H](Cc1c[nH]cn1)NC(=O)[C@@H](NC(=O)[C@H](CCC(=O)O)NC(=O)CC(C)C)[C@@H](C)O)C(c1ccccc1)c1ccccc1)C(=O)NCCCCc1ccccc1 [compound 211]	–
